The assay addresses Adenosine receptor A3 (Homo sapiens, UniProt P0DMS8). As to the kind of experiment: Binding Assay.

By UniProt entry, the sequences of proteins in these tests, tags left out.
UniProt P0DMS8, whole entry: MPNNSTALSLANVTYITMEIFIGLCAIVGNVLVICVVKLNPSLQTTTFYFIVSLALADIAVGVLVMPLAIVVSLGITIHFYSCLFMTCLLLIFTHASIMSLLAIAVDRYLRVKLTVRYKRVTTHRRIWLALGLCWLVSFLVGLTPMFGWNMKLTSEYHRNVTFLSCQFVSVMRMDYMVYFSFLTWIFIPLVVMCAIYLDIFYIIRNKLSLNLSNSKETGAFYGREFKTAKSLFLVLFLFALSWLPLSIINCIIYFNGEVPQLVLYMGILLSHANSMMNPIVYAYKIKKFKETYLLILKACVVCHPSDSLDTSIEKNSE

The structures appear in SMILES notation.

By Ki is commonly meant a dissociation constant, usually derived from enzyme kinetics or from competition with a known ligand. `OC1CS[C@@H](n2cnc3c(NCc4cccc(Cl)c4)nc(Cl)nc32)C1O` (stereo in doubt) [US9018371, 2] gave a Ki of 1.66 nM.

Values taken from BindingDB's records for patent US9018371 (Fm Therapeutics, 2015).
